This is a selection; strong and weak results do not stand in their true shares. Active and inactive are the calls of the source. Rule as the data show it: active = fold change above about 3.3; inconclusive = no clear call, values can overlap the other calls; inactive = below that.
Assay: activators of NF-kB expression in neurons, primary screen, cell-based, HTS (AID 1239)
Conditions: human neuronal cells, NF-kB reporter expression; at 12.5 µM; hits give high values

Compound | fold change
CC(C)C(=O)NC(Sc1ccccc1)C(Cl)(Cl)Cl (configuration not stated) | inactive: 1.09
O=P(Nc1nccs1)(c1ccccc1)c1ccccc1 | inactive: 1.27
c1nnnn1CCn1cnnn1 | inactive: 1.55
CC(=O)NC(SC(=S)N(C)C)C(Cl)(Cl)Cl (configuration not stated) | active: 13.7
C(Cc1nn[nH]n1)Cc1nn[nH]n1 | inactive: 1.01
O=C(OC1CN2CCC1CC2)c1cccc(Cl)c1 (configuration not stated) | inactive: 1.01
O=P(Nc1ccccn1)(c1ccc(Br)cc1)c1ccc(Br)cc1 | inactive: 1.26
COC(=O)c1cc2c(s1)N=C(c1ccccc1)N(C)P2(=O)N1CCOCC1 (configuration not stated) | inactive: 0.92
CC(=O)NC(SC(=S)N(CC(C)C)CC(C)C)C(Cl)(Cl)Cl (configuration not stated) | inactive: 1.96
Cc1ccc(OP(=O)(Nc2ccccn2)Oc2ccc(C)cc2)cc1 | inactive: 0.69
CCC(=O)N1C2C3N(C(=O)CC)C1C1N(C(=O)CC)C(C(N1C(=O)CC)N3C(=O)CC)N2C(=O)CC | inactive: 1.1
O=c1c2cc([N+](=O)[O-])ccc2[nH]c2c([N+](=O)[O-])cc([N+](=O)[O-])cc12 | inactive: 1.68
CCNC(=S)/N=C(\N)N[N+](=O)[O-] | inactive: 1.19
O=C(NC1CCS(=O)(=O)C1)NP(=S)(Oc1ccccc1)Oc1ccccc1 (configuration not stated) | inactive: 1.16
c1ccc(-c2nn[nH]n2)c(-c2nn[nH]n2)c1 | inactive: 1.14
CCOC(=O)NC(Sc1ccccc1)C(Cl)(Cl)Cl (configuration not stated) | inactive: 0.95
CC(=O)Nc1ccc(Oc2c([N+](=O)[O-])cc([N+](=O)[O-])cc2[N+](=O)[O-])cc1 | inactive: 1.23
O=P1(Nc2nc3ccc(Cl)cc3s2)COc2ccccc2O1 (configuration not stated) | inactive: 1.24
CCOc1ccc(C2=NCC(CBr)S2)cc1 (configuration not stated) | inactive: 1.68
CC(C)(C)C(=O)NC(Sc1ccccc1)C(Cl)(Cl)Cl (configuration not stated) | inactive: 0.86
CC(C)CC(=O)NC(Sc1ccc(Cl)cc1)C(Cl)(Cl)Cl (configuration not stated) | inactive: 1.26
Oc1ccccc1CNc1ccccn1 | inactive: 1.02
O=C(NC(Sc1ccncn1)C(Cl)(Cl)Cl)c1ccccc1 (configuration not stated) | inactive: 1.13
Cc1c2non([O-])c-2c(C)[n+](=O)[n+]1[O-] | inactive: 0.99
NC(=O)c1cc([N+](=O)[O-])cc([N+](=O)[O-])c1N | inactive: 1.04
Cc1ccc(N/C(=N/P(=O)(N2CCOCC2)N2CCOCC2)N2CCOCC2)cc1 | inactive: 0.93

Compound | fold change
COc1ccccc1OP(=O)(Nc1ccc(C)cn1)Oc1ccccc1OC | inactive: 1.13
CN1CCCC(OC(=O)C(c2ccccc2)c2ccccc2)C1 (configuration not stated) | inactive: 1.21
Clc1ccc(Cl)c(NC2=NCC(CBr)S2)c1 (configuration not stated) | inactive: 1.06
CCN(N=Nc1nonc1N)c1nonc1N | inactive: 1.15
Cc1cc(SC(NC(=O)c2ccc(F)cc2)C(Cl)(Cl)Cl)ncn1 (configuration not stated) | inactive: 1.14
CCOP(=O)(Nc1ccccc1)OCC | inactive: 1.22
O=[N+]([O-])c1ncn(CCn2ncnc2[N+](=O)[O-])n1 | inactive: 1.14
CCN(/C(=N/P(=O)(N1CCOCC1)N1CCOCC1)N1CCOCC1)c1ccc(OC)cc1 | inactive: 1.23
CC(C)=N/N=C(\N)N[N+](=O)[O-] | inactive: 1.1
CN(C)C(=O)OCCc1n(C)cc[n+]1C | inactive: 1.14
CC1CCN(C(=O)Oc2c(Cl)cc(Cl)c3cccnc23)CC1 | inactive: 1.19
COc1ccc(C2=NCC(CBr)S2)cc1 (configuration not stated) | inactive: 1.2
O=[N+]([O-])c1cccc2n[nH]nc12 | inactive: 1.24
CC(=O)N1C2C3N(C(C)=O)C1C1N(C(C)=O)C(C(N1C(C)=O)N3C(C)=O)N2C(C)=O | inactive: 1.1
Cc1ccc(NP(=O)(Oc2ccccc2)Oc2ccccc2)nc1 | inactive: 1.01
CCc1nc2c(n1)c1c(non1O)c1c2no[n+]1[O-] | inactive: 1.04
O=[N+]([O-])c1cc([N+](=O)[O-])c(CCNc2ccccc2)c([N+](=O)[O-])c1 | inactive: 1.37
CCC(C)N(CC(C)C)C(=S)SC(NC(C)=O)C(Cl)(Cl)Cl (configuration not stated) | inactive: 1.32
COP1(=S)c2c(C)nn(CCC#N)c2N=C(c2ccc(F)cc2)N1C (configuration not stated) | inactive: 1.18
O=C(COc1ccccc1)OC1CN2CCC1CC2 (configuration not stated) | inactive: 1.21
O=P(Nc1ccccn1)(c1cccc2ccccc12)c1cccc2ccccc12 | inactive: 1.12
Cc1cc(SC(NC=O)C(Cl)(Cl)Cl)ncn1 (configuration not stated) | inactive: 1.22
Cc1cc(SC(NC(=O)c2ccccc2)C(Cl)(Cl)Cl)nc(C(C)C)n1 (configuration not stated) | inactive: 1.42
ClCCSc1nnc(-c2cccnc2)o1 | inactive: 1.34
CC(C)NC(=O)NP(=O)(Oc1ccccc1)Oc1ccccc1 | inactive: 0.9
CCN(CC)C(=S)SC(NC=O)C(Cl)(Cl)Cl (configuration not stated) | inactive: 1.01

Compound | fold change
O=[N+]([O-])c1cc([N+](=O)[O-])c(-c2ccn[nH]2)s1 | inactive: 1.12
Cc1ccc2nc3c(c(C)c2c1)CC(C(Cl)Cl)S3 (configuration not stated) | inactive: 1.98
COc1ccc(N/C(=N/P(=O)(N2CCOCC2)N2CCOCC2)N2CCOCC2)cc1 | inactive: 1.27
O=C(OC1CN2CCC1CC2)C12CC3CC(CC(C3)C1)C2 (configuration not stated) | inactive: 0.99
Cc1cc(=O)[nH]c(N[N+](=O)[O-])n1 | inactive: 1.11
Cc1c2c(nc3ccccc13)SC(C(Cl)Cl)C2 (configuration not stated) | inactive: 1.01
COc1ccc2nc(NP(=O)(c3ccccc3)c3ccccc3)sc2c1 | inactive: 1.13
Cc1ccc(NCCc2c([N+](=O)[O-])cc([N+](=O)[O-])cc2[N+](=O)[O-])cc1 | inactive: 1.03
COc1cc(C2NCCC3(OCCO3)C2(C)C)cc(OC)c1OC (configuration not stated) | inactive: 1.05
CCOP(=O)(Nc1cccc2ccccc12)OCC | inactive: 1.39
COc1cc(C(=O)NCC2(N3CCOCC3)CCCCC2)cc(Cl)c1OC(C)C | inactive: 0.87
Cc1cccc(OCC(=O)OC2CN3CCC2CC3)c1 (configuration not stated) | inactive: 1.11
O=[N+]([O-])c1ccc2c(c1)nnn2O | inactive: 1.04
CCOP1(=S)c2c(C)nn(CCC#N)c2N=C(c2ccc(F)cc2)N1C (configuration not stated) | inactive: 0.95
CCOP1(=S)c2c(C)nn(CCC#N)c2N=C(c2ccccc2F)N1C (configuration not stated) | inactive: 0.9
O=P(Nc1nccs1)(Oc1ccccc1)Oc1ccccc1 | inactive: 0.72
O=P(Nc1nccs1)(c1ccccc1)c1nc2ccccc2s1 (configuration not stated) | inactive: 1.49
O=P1(Nc2ncccn2)COc2ccccc2OC1 | inactive: 0.85
Cc1ccc(OCC(=O)OC2CN3CCC2CC3)cc1 (configuration not stated) | inactive: 1
O=P1(Nc2ccc(Br)cn2)COc2ccccc2OC1 | inactive: 1.08
Cc1nn(-c2ccccc2)c2c1P(=O)(N1CCOCC1)N(C)C(c1ccccc1)=N2 (configuration not stated) | inactive: 0.91
CC1CCC(C(C)C)C(OP(=O)(Nc2ccccn2)c2ccccc2)C1 (configuration not stated) | inactive: 0.47
CN(C)C1(CNC(=O)c2ccc(S(C)(=O)=O)cc2)CCCCC1 | inactive: 1.01
O=P1(Nc2ccccn2)COc2ccccc2OC1 | inactive: 1.02
Clc1n[nH]nc1-c1nn[nH][15n]1 | inactive: 1.21
